# Measured values published in publication PMC5177629, “Selective Estrogen Receptor Modulators: Cannabinoid Receptor Inverse Agonists with Differential CB1 and CB2 Selectivity” (Frontiers in Pharmacology, 2016).
# By UniProt entry, the sequences of proteins in these tests, tags left out.
# UniProt P21554, whole entry: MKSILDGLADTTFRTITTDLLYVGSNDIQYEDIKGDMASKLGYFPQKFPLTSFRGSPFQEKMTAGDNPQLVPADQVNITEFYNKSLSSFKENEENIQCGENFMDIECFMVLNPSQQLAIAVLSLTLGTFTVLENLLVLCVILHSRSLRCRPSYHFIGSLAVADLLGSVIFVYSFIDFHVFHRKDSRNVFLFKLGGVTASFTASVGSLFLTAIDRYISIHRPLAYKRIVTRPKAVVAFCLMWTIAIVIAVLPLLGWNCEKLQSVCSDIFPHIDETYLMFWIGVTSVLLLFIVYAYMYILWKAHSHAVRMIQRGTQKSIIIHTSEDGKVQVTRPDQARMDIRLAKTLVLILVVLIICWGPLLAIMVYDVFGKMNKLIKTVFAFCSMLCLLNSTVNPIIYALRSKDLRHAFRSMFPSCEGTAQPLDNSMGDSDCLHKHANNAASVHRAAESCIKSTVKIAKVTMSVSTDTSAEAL
# Molecular target: T1, human cannabinoid type-1 receptors (hCB1) (Homo sapiens, UniProt P21554)
# T1 construct: host or cells: CHO cells (CHO-hCB1), membranes or intact cells
# Assay: Competition receptor binding with [3H]CP-55,940, CHO-hCB1 membranes
# Settings: ratio of Ki hCB1 / Ki hCB2
# Procedure: In short, pellets were thawed on ice, combined in a 40 ml glass Dounce homogenizer and homogenized in 20 ml of cold buffer (50 mM HEPES at pH 7.4, 3 mM MgCl2, and 1 mM EGTA) using 10 strokes. Homogenates were then centrifuged at 40,000 × g for 10 min at 4°C. After discarding the supernatant, pellets were homogenized and centrifuged twice more. Final pellets were re-suspended in ice-cold 50 mM HEPES, pH 7.4, aliquoted and stored at -80°C for future use. Protein concentration was determined the same day, prior to freezing, using BCA^TM Protein Assay (Thermo Fisher Scientific, Waltham, MA, USA).
# The final volume of each sample was 1 ml, containing 50 mM Tris-HCl buffer (pH 7.4), 0.05% bovine serum albumin, 5 mM MgCl2, increasing concentrations of non-radioactive competing SERM ligands, and either 100 μg of CHO-hCB1 or 50 μg of CHO-hCB2 membrane homogenates. […] Each sample condition was performed in triplicate and allowed to reach equilibrium at room temperature for 90 min. Reactions were terminated by rapid vacuum filtration through Whatman GF/B glass fiber filters (Brandel, Inc.), followed by four 4 ml washes of ice-cold filtration buffer (50 mM Tris at pH 7.4 and 0.05% BSA). […] Final counts were determined using liquid scintillation spectrophotometry (Tri Carb 2100 TR Liquid Scintillation Analyzer, Packard Instrument Company, Meriden, CT, USA) after overnight incubation. […]
structure (smiles),measurement,value
"OCCOc1ccc(/C(=C(/CCCl)c2ccccc2)c2ccccc2)cc1 [OSP, ospemifene]",Selectivity (CB1/CB2),0.20
